From patent US20170128483A1, “HOST DEPENDENCY FACTORS AS TARGETS FOR ANTIVIRAL THERAPY” (Ruprecht-Karls-Universitat Heidelberg, priority 2014, published 2017) come the findings set out here.

The assay concerns DENV-2. Nature of the assay: Virus yield inhibition assay, DENV-2 in Huh7 cells, titers by plaque assay. As to conditions: Huh7, DENV-2 MOI 0.1, 48 h; concentration per compound as in Table 1.

Consider `C[C@H](C[C@H](N)C(=O)O)C(=O)O` [Methylglutamic acid, (2S,4R)-4-Methylglutamic acid], for which the “Maximum effect on DENV replication (in words)” value is “inactive”.
